# Measured values as given in the RepoRT retention time repository (doi:10.1016/j.chroma.2015.11.014).
# Experiment: RP, Agilent ZORBAX Eclipse Plus C18, 150 × 2.1 mm, 3.5 µm, 40 °C, 0.3 mL/min, estimated dead time 1.1 min; A: water + 0.1% formic acid; B: acetonitrile + 0.1% formic acid; gradient (min/%B) 0/2 1/2 2/20 16.5/98 22/98
# Settings: stereoisomer not certain
smiles,measurement,value
CCC[N+](CCC)(CCC)CCC,LC retention time,5.57 min
